Measurements: patent US20030069395A1 (DYAX, published 2003)

Assays:
[1] = target: T1, human serum albumin (HSA) (human, UniProt P02768 25-609); test: fluorescence anisotropy; buffer not named in Table 2
T1 construct: also called caprylate-biotinylated-HSA

[2] = target: T1, human serum albumin (HSA); test: fluorescence anisotropy, fluorescein-labelled peptide, PBS
Method: (§1) Affinity determinations were made by first labeling polypeptides on the C-terminal end with NHS-fluorescein. Fluorescence anisotropy measurements were performed in 384-well microplates in a volume of 10 μl in binding buffer using a Tecan Polarion fluorescence polarization plate reader. The concentration of fluorescein labeled peptide was held constant (20 nM), and the concentration of HSA was varied. For pH 6.2, 7.1, and 7.4 binding conditions, a 3 mM phosphate, 0.01% Tween-20 buffer was used. For pH 9.1 binding conditions, a 3 mM sodium bicarbonate buffer, 0.01% Tween-20 nonionic detergent buffer was used. Once NaCl was added to any of these buffers, their pH was adjusted again to achieve the original pH. The binding mixtures were equilibrated for 10 minutes in the microplate at 30° C. prior to performing the measurement. The observed change in anisotropy was fit to the equation below via nonlinear regression to obtain the apparent KD. This equation assumes that the peptide and HSA form a reversible complex with 1:1 stoichiometry.
Selected HSA binding polypeptides from these additional library selections were synthesized, fluorescein-labeled as in Example 1, and tested to determine an apparent KD for HSA in PBS. […]

[3] = target: T1, human serum albumin (HSA); test: fluorescence anisotropy; pH 6.2, 0.14 M NaCl, no caprylate
Method: as §1

[4] = target: T1, human serum albumin (HSA); test: fluorescence anisotropy; pH 7.4, 0.14 M NaCl, no caprylate
Method: as §1

[5] = target: T1, human serum albumin (HSA); test: fluorescence anisotropy; pH 6.2, no NaCl, no caprylate
Method: as §1

[6] = target: T1, human serum albumin (HSA); test: fluorescence anisotropy; pH 7.4, 0.14 M NaCl, 0.1% caprylate
Method: as §1
Once all the positive phage isolates were sequenced, peptides corresponding to the display peptide were synthesized. […]

[7] = target: T1, human serum albumin (HSA); test: fluoresceinated peptide; PBS
Method: as §1
(§2) Each of the polypeptides was fluoresceinated and tested for binding against an immobilized HSA target as described above.

[8] = target: T1, human serum albumin (HSA); test: fluoresceinated peptide; 3 mM phosphate buffer, pH 6.2, no salt
Method: as §1, §2

Row | Kd [7] [µM] | Kd [8] [µM] | Binder | further results
1 | 10.5 | 1.7 | AEGTGDFWFCDRIAWYPQHLCEFLAPEGGGK (N-terminal acetyl; C-terminal amide; fluoresceinated) [alanine mutant of DX-236, Ac-AEGTGDFWFCDRIAWYPQHLCEFLAPEGGGK-NH2] | –
2 | 44 | 1.7 | AEGTGDFWFCDRIAWYPQHLCEALDPEGGGK (N-terminal acetyl; C-terminal amide; fluoresceinated) [alanine mutant of DX-236, Ac-AEGTGDFWFCDRIAWYPQHLCEALDPEGGGK-NH2] | –
3 | 47 | 2.1 | AEGTGDFWFCDRIAWYPQHLCEFADPEGGGK (N-terminal acetyl; C-terminal amide; fluoresceinated) [alanine mutant of DX-236, Ac-AEGTGDFWFCDRIAWYPQHLCEFADPEGGGK-NH2] | –

More lines, now with the values behind:

Row | Binder | Kd [7] [µM] | Kd [8] [µM] | further results
4 | AEGTGDFWFCDRIAWYPQHLCEFLGGGK (N-terminal acetyl; C-terminal amide; fluorescein on the C-terminal Lys side chain, perhaps a misprint) [truncated peptide of DX-236, Ac-…-NH2 (as printed)] | – | – | Kd [1]: 9.9 µM
5 | GDNRECVTMWPFEQIFCPWPDPGGGK (N-terminal acetyl; C-terminal amide; fluorescein on the C-terminal Lys side chain) [DX-999, Ac-GDNRECVTMWPFEQIFCPWPDPGGGK-NH2] | – | – | Kd [2]: 12 µM
6 | AEGTGSFRNCEPWMLRFGCNPRAPEGGGK (N-terminal acetyl; C-terminal amide; fluorescein on the C-terminal Lys side chain) [DX-238, Ac-AEGTGSFRNCEPWMLRFGCNPRAPEGGGK-NH2] | – | – | Kd [3]: 61 µM; Kd [4]: 79 µM; Kd [5]: 4.8 µM; Kd [6]: 110 µM
7 | CDRIAWYPQHLCGGGK (N-terminal acetyl; C-terminal amide; fluorescein on the C-terminal Lys side chain) [truncated peptide of DX-236, Ac-CDRIAWYPQHLCGGGK-NH2] | – | – | Kd [1]: 16 µM
8 | AEGTGDFWACDRIAWYPQHLCEFLDPEGGGK (N-terminal acetyl; C-terminal amide; fluoresceinated) [alanine mutant of DX-236, Ac-AEGTGDFWACDRIAWYPQHLCEFLDPEGGGK-NH2] | 43 | 1.1 | –
9 | AEGTGDFWFCDRIAWYPQHLCAFLDPEGGGK (N-terminal acetyl; C-terminal amide; fluoresceinated) [alanine mutant of DX-236, Ac-AEGTGDFWFCDRIAWYPQHLCAFLDPEGGGK-NH2] | 6.6 | 1.7 | –
10 | AEGTGDFWFCARIAWYPQHLCEFLDPEGGGK (N-terminal acetyl; C-terminal amide; fluoresceinated) [alanine mutant of DX-236, Ac-AEGTGDFWFCARIAWYPQHLCEFLDPEGGGK-NH2] | – | 1.6 | –
11 | AEGTGDFWFCDRIAWYAQHLCEFLDPEGGGK (N-terminal acetyl; C-terminal amide; fluoresceinated) [alanine mutant of DX-236, Ac-AEGTGDFWFCDRIAWYAQHLCEFLDPEGGGK-NH2] | 43 | – | –
12 | AEGTGDFWFCDRAAWYPQHLCEFLDPEGGGK (N-terminal acetyl; C-terminal amide; fluoresceinated) [alanine mutant of DX-236, Ac-AEGTGDFWFCDRAAWYPQHLCEFLDPEGGGK-NH2] | 4.5 | 1.1 | –
13 | AEGTGDFWFCDRIAWYPQHACEFLDPEGGGK (N-terminal acetyl; C-terminal amide; fluoresceinated) [alanine mutant of DX-236, Ac-AEGTGDFWFCDRIAWYPQHACEFLDPEGGGK-NH2] | 34.5 | – | –
14 | AEGTGDFWFCDRIAAYPQHLCEFLDPEGGGK (N-terminal acetyl; C-terminal amide; fluoresceinated) [alanine mutant of DX-236, Ac-AEGTGDFWFCDRIAAYPQHLCEFLDPEGGGK-NH2] | 44 | – | –
15 | DRIAWYPQHLGGGK (N-terminal acetyl; C-terminal amide; fluorescein on the C-terminal Lys side chain, Linear, no cysteines) [truncated peptide of DX-236, Ac-DRIAWYPQHLGGGK-NH2] | – | – | Kd [1]: 125 µM
